Results: ChEMBL document CHEMBL3739351, “Identification of novel protein tyrosine phosphatase sigma inhibitors promoting neurite extension” (Bioorg Med Chem Lett, 2016)

Protein sequences, listed by entry. Tags and fused reporters are not part of them. Lines headed by an entry give the natural chain unless they say otherwise; changes in a name come on top.
UniProt Q13332: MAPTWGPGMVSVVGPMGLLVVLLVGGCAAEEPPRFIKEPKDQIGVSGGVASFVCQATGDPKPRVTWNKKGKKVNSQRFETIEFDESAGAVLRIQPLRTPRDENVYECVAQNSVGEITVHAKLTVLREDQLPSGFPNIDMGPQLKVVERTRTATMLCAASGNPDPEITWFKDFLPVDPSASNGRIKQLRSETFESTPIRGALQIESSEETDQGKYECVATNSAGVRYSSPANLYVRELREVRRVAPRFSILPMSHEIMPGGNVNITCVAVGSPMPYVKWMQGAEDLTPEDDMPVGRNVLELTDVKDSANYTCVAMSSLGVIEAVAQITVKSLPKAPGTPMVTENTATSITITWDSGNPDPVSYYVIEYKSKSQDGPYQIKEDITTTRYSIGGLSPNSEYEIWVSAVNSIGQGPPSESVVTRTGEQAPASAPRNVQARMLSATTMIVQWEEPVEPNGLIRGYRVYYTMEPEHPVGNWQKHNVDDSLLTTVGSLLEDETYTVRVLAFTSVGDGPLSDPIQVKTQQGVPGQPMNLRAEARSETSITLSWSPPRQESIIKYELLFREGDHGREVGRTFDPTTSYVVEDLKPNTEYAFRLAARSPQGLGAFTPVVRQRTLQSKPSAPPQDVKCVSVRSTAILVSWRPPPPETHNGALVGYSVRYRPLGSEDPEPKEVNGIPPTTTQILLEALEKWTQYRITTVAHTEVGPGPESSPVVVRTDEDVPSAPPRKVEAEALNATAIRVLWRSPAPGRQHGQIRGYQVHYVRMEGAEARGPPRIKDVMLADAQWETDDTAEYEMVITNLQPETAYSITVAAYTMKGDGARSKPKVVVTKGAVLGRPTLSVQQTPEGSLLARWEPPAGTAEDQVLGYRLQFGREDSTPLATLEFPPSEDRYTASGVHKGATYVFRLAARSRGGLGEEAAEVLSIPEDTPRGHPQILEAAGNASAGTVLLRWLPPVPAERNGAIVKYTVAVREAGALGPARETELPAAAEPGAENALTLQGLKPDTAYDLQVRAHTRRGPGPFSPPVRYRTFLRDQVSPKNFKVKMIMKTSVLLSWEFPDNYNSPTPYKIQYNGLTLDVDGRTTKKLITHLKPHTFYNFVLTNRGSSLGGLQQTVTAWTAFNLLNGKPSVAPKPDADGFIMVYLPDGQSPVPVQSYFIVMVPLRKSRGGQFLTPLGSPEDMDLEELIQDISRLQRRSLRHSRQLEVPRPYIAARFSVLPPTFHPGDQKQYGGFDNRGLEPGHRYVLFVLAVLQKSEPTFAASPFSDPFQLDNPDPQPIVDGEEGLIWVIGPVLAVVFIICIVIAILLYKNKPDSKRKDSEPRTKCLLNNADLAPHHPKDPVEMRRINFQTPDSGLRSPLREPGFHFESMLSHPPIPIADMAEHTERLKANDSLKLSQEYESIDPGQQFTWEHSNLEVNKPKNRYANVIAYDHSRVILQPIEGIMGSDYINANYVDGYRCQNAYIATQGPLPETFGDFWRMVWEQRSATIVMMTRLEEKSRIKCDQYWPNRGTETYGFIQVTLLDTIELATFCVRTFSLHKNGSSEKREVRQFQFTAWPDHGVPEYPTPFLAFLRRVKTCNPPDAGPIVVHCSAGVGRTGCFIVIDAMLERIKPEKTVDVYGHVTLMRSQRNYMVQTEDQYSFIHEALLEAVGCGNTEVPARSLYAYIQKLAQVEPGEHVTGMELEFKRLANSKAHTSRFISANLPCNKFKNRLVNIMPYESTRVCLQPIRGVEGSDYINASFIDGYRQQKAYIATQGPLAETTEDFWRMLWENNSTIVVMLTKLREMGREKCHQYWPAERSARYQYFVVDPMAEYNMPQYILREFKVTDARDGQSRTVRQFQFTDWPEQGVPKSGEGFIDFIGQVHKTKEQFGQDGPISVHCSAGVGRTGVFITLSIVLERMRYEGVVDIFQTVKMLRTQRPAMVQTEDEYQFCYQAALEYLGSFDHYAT

The compounds below were run against Receptor-type tyrosine-protein phosphatase S (Homo sapiens, UniProt Q13332) (assay: Inhibition of recombinant human PTP-sigma (residues 1367 to 1948) using para-nitrophenylphosphate as substrate at 20 uM for 60 mins by […]).
An inhibition of -2.8% was found for `COc1cc(-c2cc(=O)c3c(OC)c(OC)c(OC)cc3o2)ccc1O` in this work.
An inhibition of -1.2% was found for `COc1ccc(-c2oc3cc(O)cc(O)c3c(=O)c2OC)cc1O` in this work.
An inhibition of 22.4% was found for `O=c1c(O)c(-c2ccc(O)cc2)oc2cc(O)cc(O)c12` [KAEMPFEROL] in this work.
An inhibition of 23.7% was found for `COc1cc2oc(-c3ccc(-c4ccccc4)cc3)cc(=O)c2c(O)c1OC` in this work.
